Results published in BindingDB's records for US20240034743 (Qilu Pharmaceutical, 2024).
pIC50: −log10 of the molar value.

By UniProt entry, the sequences of proteins in these tests, tags left out. Residues count along the entry.
UniProt P00533, 25-1210 limits assumed: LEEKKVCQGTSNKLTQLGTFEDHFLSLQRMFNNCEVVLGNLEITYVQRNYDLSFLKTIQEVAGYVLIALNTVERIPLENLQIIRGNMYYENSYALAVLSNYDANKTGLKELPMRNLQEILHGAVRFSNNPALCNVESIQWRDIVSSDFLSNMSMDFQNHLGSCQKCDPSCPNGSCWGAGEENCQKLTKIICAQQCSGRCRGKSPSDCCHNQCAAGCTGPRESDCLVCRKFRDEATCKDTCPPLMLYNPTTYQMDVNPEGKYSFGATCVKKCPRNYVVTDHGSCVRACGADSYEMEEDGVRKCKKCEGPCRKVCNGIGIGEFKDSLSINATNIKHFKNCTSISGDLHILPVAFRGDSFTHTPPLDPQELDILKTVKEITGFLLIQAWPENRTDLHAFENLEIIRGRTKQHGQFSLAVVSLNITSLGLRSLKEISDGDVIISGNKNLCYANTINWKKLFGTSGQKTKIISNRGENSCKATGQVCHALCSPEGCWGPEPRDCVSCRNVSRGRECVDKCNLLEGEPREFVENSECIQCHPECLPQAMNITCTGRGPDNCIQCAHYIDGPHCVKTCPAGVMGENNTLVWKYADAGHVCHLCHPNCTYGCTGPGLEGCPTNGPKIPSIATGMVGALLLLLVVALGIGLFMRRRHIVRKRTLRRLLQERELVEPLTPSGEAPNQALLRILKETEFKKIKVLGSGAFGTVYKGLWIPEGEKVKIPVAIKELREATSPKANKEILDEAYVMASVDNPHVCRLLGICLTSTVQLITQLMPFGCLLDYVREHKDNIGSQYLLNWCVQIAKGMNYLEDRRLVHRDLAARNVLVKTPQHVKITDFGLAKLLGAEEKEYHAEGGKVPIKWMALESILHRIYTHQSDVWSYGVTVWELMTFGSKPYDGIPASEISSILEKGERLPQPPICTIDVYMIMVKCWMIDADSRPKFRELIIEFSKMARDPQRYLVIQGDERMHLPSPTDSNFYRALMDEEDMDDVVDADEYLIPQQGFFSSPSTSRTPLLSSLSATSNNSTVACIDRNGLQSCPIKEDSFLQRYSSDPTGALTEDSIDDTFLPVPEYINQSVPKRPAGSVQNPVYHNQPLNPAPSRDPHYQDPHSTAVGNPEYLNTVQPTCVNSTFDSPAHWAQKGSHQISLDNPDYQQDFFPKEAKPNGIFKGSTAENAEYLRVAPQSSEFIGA
UniProt P00533, 25-1210 T790M/C797S/L858R limits assumed: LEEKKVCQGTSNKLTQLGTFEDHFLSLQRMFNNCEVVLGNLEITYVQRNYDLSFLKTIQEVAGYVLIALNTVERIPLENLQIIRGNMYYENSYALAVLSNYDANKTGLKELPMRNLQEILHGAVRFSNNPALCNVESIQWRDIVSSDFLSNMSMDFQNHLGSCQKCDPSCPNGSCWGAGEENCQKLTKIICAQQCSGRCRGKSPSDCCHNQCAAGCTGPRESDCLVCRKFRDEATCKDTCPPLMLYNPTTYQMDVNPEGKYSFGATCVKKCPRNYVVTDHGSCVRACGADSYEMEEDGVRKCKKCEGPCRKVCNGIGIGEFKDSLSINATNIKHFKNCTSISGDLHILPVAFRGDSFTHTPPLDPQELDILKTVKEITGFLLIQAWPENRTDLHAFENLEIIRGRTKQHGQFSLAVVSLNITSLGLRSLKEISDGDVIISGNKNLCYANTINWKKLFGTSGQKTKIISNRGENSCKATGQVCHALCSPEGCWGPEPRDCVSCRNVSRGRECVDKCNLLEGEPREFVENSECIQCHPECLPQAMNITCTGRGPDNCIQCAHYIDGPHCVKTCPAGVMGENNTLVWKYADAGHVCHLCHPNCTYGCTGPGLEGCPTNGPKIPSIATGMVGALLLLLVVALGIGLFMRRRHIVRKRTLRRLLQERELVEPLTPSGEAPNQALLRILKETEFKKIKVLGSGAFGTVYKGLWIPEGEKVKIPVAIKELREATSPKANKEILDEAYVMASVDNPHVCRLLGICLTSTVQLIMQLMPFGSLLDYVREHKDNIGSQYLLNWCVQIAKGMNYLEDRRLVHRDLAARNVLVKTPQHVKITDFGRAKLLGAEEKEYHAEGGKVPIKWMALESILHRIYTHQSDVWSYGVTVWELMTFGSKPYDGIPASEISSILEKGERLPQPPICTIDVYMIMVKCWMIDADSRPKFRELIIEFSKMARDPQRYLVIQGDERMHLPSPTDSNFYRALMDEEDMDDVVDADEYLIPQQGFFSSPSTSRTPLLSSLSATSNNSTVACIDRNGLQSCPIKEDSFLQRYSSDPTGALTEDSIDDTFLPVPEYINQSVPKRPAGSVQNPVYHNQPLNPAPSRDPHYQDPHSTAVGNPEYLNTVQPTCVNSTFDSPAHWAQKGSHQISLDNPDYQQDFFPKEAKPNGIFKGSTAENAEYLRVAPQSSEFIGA

Assays:
[1] = molecular target: Epidermal growth factor receptor (Homo sapiens, UniProt P00533); test: Not found
Excerpt: Not found

[2] = molecular target: Epidermal growth factor receptor [L858R,T790M,C797S] (Homo sapiens, UniProt P00533, T790M/C797S/L858R); test: Not found
Excerpt: Not found

For `COc1nc2c(cc1Nc1ncc(Br)c(Nc3cccnc3NP(C)(C)=O)n1)-c1cnn(C)c1CCN2C(C)C`, the pIC50 [1] was 8.26 and the pIC50 [2] was > 9.00.
